From patent US7547783B2, “Transition metal complexes” (Shell Oil Company, priority 2004, dated 2009)

Test: practical solubility of the transition metal complexes at ambient temperature
Settings: at 20° C.
Procedure: The practical solubility of the transition metal complexes was determined at ambient temperature in the inert atmosphere of the dry box.
1 mg of solid complex was contacted with 0.5 ml of benzene-D6 in an NMR-tube (5 mm external diameter) and gently swirled.

With “2-[1-(2,4,6-trimethylphenylimino)ethyl]-6-[1-(4-tert-butylphenylimino)ethyl]pyridine iron[II] chloride complex [Example 1, reference compound]” the “solubility in toluene or benzene-D6” value was under 1000 µg/mL.
